Measured values as given in ChEMBL document CHEMBL4340526, “Discovery and Mechanistic Study of Tailor-Made Quinoline Derivatives as Topoisomerase 1 Poison with Potent Anticancer Activity” (J Med Chem, 2019).
Activity calls are given as the source filed them. The rule behind the calls is not given here.

Legend:
[1] = target: T1, DNA topoisomerase 1 (Homo sapiens) (UniProt P11387); assay: Inhibition of TOP1-mediated DNA cleavage in human MCF7 cells assessed as induction of protein-DNA covalent cleavage complex formation by measuring increase in gammaH2AX foci formation preincubated for 3 to 5 hrs followed by compound washout and measured after 5 hrs by DAPI staining-based immunofluorescence microscopic method; assay type: cell-based
T1 sequence (whole entry): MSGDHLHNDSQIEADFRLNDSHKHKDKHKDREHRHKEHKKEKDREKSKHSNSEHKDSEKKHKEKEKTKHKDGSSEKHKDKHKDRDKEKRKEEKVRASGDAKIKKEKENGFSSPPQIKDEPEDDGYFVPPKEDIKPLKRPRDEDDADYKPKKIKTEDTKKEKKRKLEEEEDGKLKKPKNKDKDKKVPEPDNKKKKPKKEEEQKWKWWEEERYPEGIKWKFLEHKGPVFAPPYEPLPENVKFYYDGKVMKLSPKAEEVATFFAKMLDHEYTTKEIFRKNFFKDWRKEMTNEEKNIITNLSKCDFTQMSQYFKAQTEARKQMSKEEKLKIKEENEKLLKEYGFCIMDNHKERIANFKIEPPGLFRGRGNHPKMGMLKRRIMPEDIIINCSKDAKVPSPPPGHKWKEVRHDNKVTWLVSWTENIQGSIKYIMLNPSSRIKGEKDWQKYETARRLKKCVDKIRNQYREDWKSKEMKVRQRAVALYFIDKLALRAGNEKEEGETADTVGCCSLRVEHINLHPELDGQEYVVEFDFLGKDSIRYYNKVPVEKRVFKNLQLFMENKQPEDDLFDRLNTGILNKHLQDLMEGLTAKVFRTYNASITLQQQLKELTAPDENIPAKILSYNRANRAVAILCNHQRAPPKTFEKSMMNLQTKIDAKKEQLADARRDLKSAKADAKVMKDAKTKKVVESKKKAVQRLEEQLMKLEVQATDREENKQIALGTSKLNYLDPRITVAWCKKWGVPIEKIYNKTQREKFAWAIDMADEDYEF

[2] = target: T1, DNA topoisomerase 1 (Homo sapiens); assay: Poison activity at recombinant human TOP1 expressed in baculovirus infected Sf9 insect cells assessed as decrease in relaxed supercoiled pBS(SK+) DNA mobility at 0.1 uM measured after 30 mins by ethidium bromide staining based agarose gel electrophoresis relative to control; set-up: scale not given: the % may be the effect or the level left
[3] = target: T1, DNA topoisomerase 1 (Homo sapiens); assay: Inhibition of TOP1-mediated DNA cleavage in human MCF7 cells assessed as induction of protein-DNA covalent cleavage complex formation by measuring increase in gammaH2AX foci formation by DAPI staining-based immunofluorescence microscopic method; assay type: cell-based
[4] = target: T1, DNA topoisomerase 1 (Homo sapiens); assay: Poison activity at TOP1 in human MCF7 cells assessed as decrease in relaxed supercoiled pBS(SK+) DNA mobility at 0.25 to 2 uM measured after 30 mins by ethidium bromide staining based agarose gel electrophoresis; assay type: cell-based
[5] = target: T1, DNA topoisomerase 1 (Homo sapiens); assay: Poison activity at recombinant human TOP1 expressed in baculovirus infected Sf9 insect cells assessed as stabilization of enzyme-25mer duplex oligonucleotide cleavable complex formation at 5 to 25 uM measured after 30 mins by ethidium bromide staining based agarose gel electrophoresis method

Structure (SMILES): COc1ccc(-c2ccc3ncc(-c4nnco4)c(NCCCn4ccnc4)c3c2)cc1
- fold change (FC) [1]: 3 to 4
- Activity [2]: 85 to 90%
- inhibition [3]: Dose-dependent effect
- Activity [4]: Active
- Activity [5]: Active
